This passage reports IC50 results from patent publication US9296745B2, “Diacylglycerol acyltransferase 2 inhibitors” (Pfizer Inc., priority 2012, dated 2016).

Sequences of proteins named here, by UniProt entry; tags and fusion partners are left off.
UniProt Q96PD7, whole entry: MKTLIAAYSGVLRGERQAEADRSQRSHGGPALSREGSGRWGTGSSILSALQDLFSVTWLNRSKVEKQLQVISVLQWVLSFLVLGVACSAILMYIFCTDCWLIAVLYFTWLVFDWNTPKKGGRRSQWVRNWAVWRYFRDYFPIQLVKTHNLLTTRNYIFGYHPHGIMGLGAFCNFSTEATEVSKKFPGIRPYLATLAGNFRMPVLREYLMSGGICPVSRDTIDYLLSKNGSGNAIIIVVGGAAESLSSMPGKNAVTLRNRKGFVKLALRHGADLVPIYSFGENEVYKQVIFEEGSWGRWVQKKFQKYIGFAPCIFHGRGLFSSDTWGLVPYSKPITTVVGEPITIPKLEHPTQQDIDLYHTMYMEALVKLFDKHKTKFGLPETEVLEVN

The target in this test is Human DGAT2 (hDGAT2) (Homo sapiens (Human), UniProt Q96PD7). The test is described as follows: In vitro DGAT2 assay, IC50 determination with hDGAT2 membrane fraction. In kind it is biochemical. The settings on record: read-out: DGAT2 IC50; geometric mean; background for complete inhibition of DGAT2 obtained with 50 μM (1R,2R)-2-({3′-Fluoro-4′-[(6-fluoro-1,3-benzothiazol-2-yl)amino]-1,1′-biphenyl-4-yl}carbonyl)cyclopentanecarboxylic acid.

For orientation: IC50 means the midpoint of a concentration-inhibition curve. As for `O=C([C@@H]1CCCN(c2ccc3nc(-c4ccnc(C(F)(F)F)n4)[nH]c3n2)C1)N1CCCC1`, the IC50 was found to be 187 nM.
